Source: ChEMBL document CHEMBL3046656, “Apoptotic effects of some carbazole derivatives on lung carcinoma and glioma cell lines” (Med Chem Res, 2013)

Protein sequences, listed by entry. Tags and fused reporters are not part of them. Lines headed by an entry give the natural chain unless they say otherwise; changes in a name come on top.
UniProt O42275: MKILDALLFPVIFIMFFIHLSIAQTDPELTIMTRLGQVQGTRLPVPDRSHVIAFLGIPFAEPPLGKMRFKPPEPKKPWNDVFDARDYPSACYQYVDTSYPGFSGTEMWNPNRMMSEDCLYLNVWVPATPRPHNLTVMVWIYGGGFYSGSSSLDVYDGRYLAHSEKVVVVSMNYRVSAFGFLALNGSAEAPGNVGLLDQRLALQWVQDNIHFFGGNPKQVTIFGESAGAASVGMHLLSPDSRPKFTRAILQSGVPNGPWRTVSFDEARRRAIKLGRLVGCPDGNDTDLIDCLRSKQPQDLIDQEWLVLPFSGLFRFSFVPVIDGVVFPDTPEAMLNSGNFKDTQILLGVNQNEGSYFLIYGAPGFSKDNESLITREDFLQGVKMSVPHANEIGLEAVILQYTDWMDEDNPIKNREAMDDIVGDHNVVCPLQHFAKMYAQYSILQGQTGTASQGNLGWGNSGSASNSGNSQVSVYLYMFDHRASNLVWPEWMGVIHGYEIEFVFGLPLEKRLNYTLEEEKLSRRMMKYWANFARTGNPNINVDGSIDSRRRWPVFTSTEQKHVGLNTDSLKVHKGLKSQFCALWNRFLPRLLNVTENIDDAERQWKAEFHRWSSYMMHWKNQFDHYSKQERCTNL

Molecular target: Acetylcholinesterase (Electrophorus electricus, UniProt O42275)
Assay: Inhibition of Electrophorus electricus (electric eel) AChE using acetylthiocholine iodide as substrate incubated for 15 min prior to substrate addition measured after 30 min by Ellman's spectrophotometric method

Question: How did the IC50 turn out when `CNC(=O)Oc1ccc2c(c1)[C@]1(C)CCN(C)[C@@H]1N2C` [PHYSOSTIGMINE] was run?
Answer: The IC50 was 123 nM.
